## Apparent affinities of Ab-14 variants for a coronavirus HR2 peptide

From the AlphaSeq antibody data of Li et al. 2023 (doi:10.1038/s41467-023-39022-2), copy in the FLAb collection.

The target is the same throughout: PDVDLGDISGINAS, from the HR2 region of SARS-CoV-2 spike.

The variants keep the heavy chain, the linker and the frameworks of Ab-14 (scFv order VH, three GGGGS repeats, VL).
VH: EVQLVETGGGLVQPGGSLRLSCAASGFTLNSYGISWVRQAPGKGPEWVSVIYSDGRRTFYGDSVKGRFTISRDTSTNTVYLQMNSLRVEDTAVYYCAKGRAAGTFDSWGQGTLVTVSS
VL: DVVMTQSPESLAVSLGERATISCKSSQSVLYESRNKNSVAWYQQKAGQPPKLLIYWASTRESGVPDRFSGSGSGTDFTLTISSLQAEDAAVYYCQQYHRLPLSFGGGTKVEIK

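Phage display of a naive human antibody library on the peptide gave the parent. These sequences belong to a second round, designed from the earlier measurements on random variants of the parent. Their group label is 14L_GP_Gibbs (GP: Gaussian process model; Gibbs: Gibbs sampling; a sequence that several methods proposed may carry one label only). In AlphaSeq, yeast of one mating type display the scFv and yeast of the other type display the target. After mating in shaken culture at 30 °C for 16 h, diploids were selected and their barcode pairs sequenced. Each replicate has its own calibration line, from reference interactions of the BCL2 family. The assay was run in six technical replicates.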

The whole VL of each variant is written out. Values are log10 of the apparent Kd in nM; lower means stronger binding. As a blank, each scFv also met three strains without target: over all light chain designs, 4% of these pairings were detected, typically at 2.64 and seldom below 1.59. Also given: how often the same scFv was detected with the empty control strains, with their mean in brackets. The range of this assay differs from that of the first round, and the authors advise against merging the two. In the paper, a design with two or fewer of six values counts as a poor binder. Of ten entries with the parent sequence, four were seen in most replicates (averages 0.34 to 2.37), three in one and three in none, so single entries are noisy.

| VL | log10 Kd (nM) by replicate | signal with controls |
|---|---|---|
| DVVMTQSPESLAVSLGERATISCKAQQSNEYESRNKWSVAWYQQKAGQPPKLLIYNASTRESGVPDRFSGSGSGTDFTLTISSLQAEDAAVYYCQQYHRLPLSFGGGTKVEIK | 0.22 0.74 0.62 0.53 0.30 0.75 | 0 of 18 |
| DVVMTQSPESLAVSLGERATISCKLMQSSGYESRNFNSVAWYQQKAGQPPKLLIYQASTRMSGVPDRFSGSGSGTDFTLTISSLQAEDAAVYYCQQYHRLPLSFGGGTKVEIK | 0.92 0.77 0.72 0.78 0.52 0.58 | 3 of 18 (3.63) |
| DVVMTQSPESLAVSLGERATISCKVSQAVPYESRNKNNVAWYQQKAGQPPKLLIYDGSTRESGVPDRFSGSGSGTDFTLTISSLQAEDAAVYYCQQYHRLPLSFGGGTKVEIK | -0.41 -0.48 -0.57 -0.75 -0.52 -0.53 | 1 of 18 (3.43) |
| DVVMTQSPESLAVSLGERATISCKAQQSELYGERNSNSVAWYQQKAGQPPKLLIYEASLRESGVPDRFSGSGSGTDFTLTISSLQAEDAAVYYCQQYHRLPLSFGGGTKVEIK | 0.43 0.24 -0.10 0.14 0.28 0.36 | 0 of 18 |
| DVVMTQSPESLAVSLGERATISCKLSPSEQYESRNKNSVAWYQQKAGQPPKLLIYHSSERESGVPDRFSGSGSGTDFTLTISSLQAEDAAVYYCQQYHRLPLSFGGGTKVEIK | 0.22 0.15 -0.09 -0.24 -0.12 -0.03 | 1 of 18 (2.15) |
| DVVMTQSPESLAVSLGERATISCKVQQSELGLSRNKNSVAWYQQKAGQPPKLLIYNASKRESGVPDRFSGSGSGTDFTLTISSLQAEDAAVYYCQQYHRLPLSFGGGTKVEIK | 0.28 0.12 0.05 0.21 0.36 0.32 | 0 of 18 |
| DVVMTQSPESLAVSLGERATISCKQSISGPYEDRNFNSVAWYQQKAGQPPKLLIYHASQRISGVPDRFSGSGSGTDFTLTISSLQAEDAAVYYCQQYHRLPLSFGGGTKVEIK | 1.64 0.84 0.87 1.07 1.14 1.29 | 2 of 18 (2.80) |
| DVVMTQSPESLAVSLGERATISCKLMQLQDYESRNKNSVAWYQQKAGQPPKLLIYHASQREQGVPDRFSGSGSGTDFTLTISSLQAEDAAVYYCQQYHRLPLSFGGGTKVEIK | 0.66 0.18 0.23 0.20 0.44 0.52 | 0 of 18 |
| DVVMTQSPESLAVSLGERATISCKLSMSQLYEWRNFNSVAWYQQKAGQPPKLLIYNASTREEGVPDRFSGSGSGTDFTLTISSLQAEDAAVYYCQQYHRLPLSFGGGTKVEIK | -0.07 -0.20 -0.24 -0.26 -0.13 -0.14 | 5 of 18 (3.24) |
| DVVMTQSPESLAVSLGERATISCKAAQSWGYESRNKWSVAWYQQKAGQPPKLLIYNASTRESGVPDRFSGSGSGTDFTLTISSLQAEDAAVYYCQQYHRLPLSFGGGTKVEIK | -0.15 -0.22 0.08 -0.30 -0.07 -0.27 | 0 of 18 |
| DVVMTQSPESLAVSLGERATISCKVDQSVLGLSRNQNAVAWYQQKAGQPPKLLIYAASTRESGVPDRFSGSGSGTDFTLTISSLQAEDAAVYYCQQYHRLPLSFGGGTKVEIK | -0.13 -0.24 -0.32 -0.30 -0.26 -0.20 | 2 of 18 (3.13) |
| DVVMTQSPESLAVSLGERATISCKLSQHVEYESRNKNSVAWYQQKAGQPPKLLIYNASTRLKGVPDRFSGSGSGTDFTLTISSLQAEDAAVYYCQQYHRLPLSFGGGTKVEIK | 0.01 0.28 0.25 0.18 0.32 0.39 | 3 of 18 (3.11) |
| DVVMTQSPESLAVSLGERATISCKLQQQSLYGSRNKNSVAWYQQKAGQPPKLLIYSASTREQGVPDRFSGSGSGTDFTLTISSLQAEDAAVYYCQQYHRLPLSFGGGTKVEIK | 0.24 -0.27 -0.29 -0.26 0.39 0.10 | 2 of 18 (2.51) |
| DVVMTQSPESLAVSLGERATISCKLQQSQLYGSRNKNSVAWYQQKAGQPPKLLIYEASTRLVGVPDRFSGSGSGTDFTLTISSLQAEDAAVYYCQAYHRLPLSFGGGTKVEIK | 0.87 0.69 0.64 0.74 1.06 0.94 | 1 of 18 (2.13) |
| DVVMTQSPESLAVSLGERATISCKIQQSVYYEDRNKNSVAWYQQKAGQPPKLLIYSASTRCPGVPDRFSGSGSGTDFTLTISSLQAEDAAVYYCQQYHRLPLSFGGGTKVEIK | 0.45 -0.17 -0.18 -0.20 -0.05 -0.17 | 2 of 18 (2.19) |

Picked from the list: the 2 lowest averages where every replicate gave a value.

| VL | log10 Kd (nM) by replicate | signal with controls |
|---|---|---|
| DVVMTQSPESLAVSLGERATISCKVSQAVPYESRNKNNVAWYQQKAGQPPKLLIYDGSTRESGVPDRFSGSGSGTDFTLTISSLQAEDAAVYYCQQYHRLPLSFGGGTKVEIK | -0.41 -0.48 -0.57 -0.75 -0.52 -0.53 | 1 of 18 (3.43) |
| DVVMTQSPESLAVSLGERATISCKVDQSVLGLSRNQNAVAWYQQKAGQPPKLLIYAASTRESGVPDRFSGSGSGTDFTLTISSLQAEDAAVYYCQQYHRLPLSFGGGTKVEIK | -0.13 -0.24 -0.32 -0.30 -0.26 -0.20 | 2 of 18 (3.13) |